Assay results from patent US20230042729A1, “PEPTIDE CONSTRUCTS AND COMPOSITIONS” (DIET4LIFE APS, priority 2019, published 2023).

Sequences of proteins named here, by UniProt entry; tags and fusion partners are left off. A change or cut given only in a name is not applied to a line headed by its entry.
UniProt P28843: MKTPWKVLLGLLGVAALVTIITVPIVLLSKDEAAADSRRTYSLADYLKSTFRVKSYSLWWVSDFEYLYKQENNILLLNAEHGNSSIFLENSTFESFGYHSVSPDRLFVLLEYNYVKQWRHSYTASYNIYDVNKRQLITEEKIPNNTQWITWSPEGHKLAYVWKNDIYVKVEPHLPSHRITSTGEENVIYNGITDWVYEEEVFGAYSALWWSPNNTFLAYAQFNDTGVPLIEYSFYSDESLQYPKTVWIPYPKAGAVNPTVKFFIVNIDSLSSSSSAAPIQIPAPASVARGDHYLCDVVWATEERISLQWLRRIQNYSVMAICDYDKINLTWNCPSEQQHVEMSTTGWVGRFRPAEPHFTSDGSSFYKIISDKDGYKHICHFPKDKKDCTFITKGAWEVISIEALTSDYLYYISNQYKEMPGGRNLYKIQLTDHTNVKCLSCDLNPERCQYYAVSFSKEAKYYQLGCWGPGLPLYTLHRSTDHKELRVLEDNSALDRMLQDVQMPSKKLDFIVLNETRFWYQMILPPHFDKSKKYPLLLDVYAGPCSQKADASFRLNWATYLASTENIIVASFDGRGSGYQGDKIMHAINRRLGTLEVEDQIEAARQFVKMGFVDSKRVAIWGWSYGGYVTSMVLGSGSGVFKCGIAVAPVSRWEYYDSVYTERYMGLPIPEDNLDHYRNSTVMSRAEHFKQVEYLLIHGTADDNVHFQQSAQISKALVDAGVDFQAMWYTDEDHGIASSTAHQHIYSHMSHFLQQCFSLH

Biological target: DPP IV (Mus musculus, UniProt P28843)
Experiment: biochemical

EC50: ~49.1 nM
SMILES: N[C@@H](CC(=O)N1CCn2c(nnc2C(F)(F)F)C1)Cc1cc(F)c(F)cc1F [Sitagliptin]
